# Compound activity as filed in PubChem.
# HIV Env fusion: blocks HIV Env-driven cell-cell fusion; HeLa-JRFL Env/CEM21 cell fusion, luciferase; inhibition, % at 12.3 µM; hit rate 1.1% among 360,000;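 active = mean replicate inhibition score of at least 50 and every replicate individually at or above 50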;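 also: 0% = plate neutral controls and 100% = maraviroc near 300 nM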
# Yeast UUG start: alters start codon recognition fidelity in yeast | S. cerevisiae UUG-firefly luciferase reporter, luminescence/redox ratio | activity score, % at 18.7 µM | 350,000 compounds, 0.13% hits | AID 602363;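 active = replicate mean at a twofold rise or more, about +100% in these data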;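 note: firefly luciferase made from a UUG start codon reports start codon fidelity; reporter light over untreated wells divided by growth signal over untreated wells; some hits fall short of that in this replicate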
# Cneo AK release: Cryptococcus neoformans lysis via adenylate kinase release; C. neoformans lysis, adenylate kinase release luminescence, 4 h; normalised: neutral wells 0, clomiphene wells 100; lysis activity, % at 15 µM; hit rate 0.2% among 360,000; AID 651654;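 active = mean lysis activity across replicates of at least 80%, whatever share of replicates individually reach that level; inactive = mean lysis activity below 80%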
#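 Assay system: log-phase C. neoformans yeast / Quantity: yeast cell density of 5 × 10^6 cells/mL / Medium: fresh YPD growth medium / Compound: single dose / Timing: static 4 h at 37 °C with compound, 1 h detection / Measured by: adenylate kinase release luminescence / Read-out: lysis from increased AK signal / Benchmarks: Clomiphene as positive lysis control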
# miR122 inh: miR-122 inhibition in Huh7 cells; AID 602342; Huh7 miR-122 Renilla luciferase sensor, 48 h; neutral wells = 0, positive control = 100; hit rate 0.3% among 340,000; activation (reporter increase), % at 12.5 µM;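 active = mean replicate activation score at least 90 and every replicate individually at or above 90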;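 also: higher luciferase means less miR-122 activity so hits act as miR-122 inhibitors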
# PGC1a acetyl inh: PGC1a acetylation modulation, inhibitor mode | AID 651687 | inhibition, % at 15.6 µM | U2OS PGC1a acetylation, AlphaScreen anti-acetyl-lysine; with virally co-expressed GCN5 acetyltransferase | hit rate 0.17% among 350,000;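 active = every replicate shows inhibition of at least 40%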;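 also: 0% = neutral control wells and 100% = positive control wells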
# FN deposition inh: fibronectin deposition inhibition; AH1F fibroblasts, Alexa488-fibronectin deposition fluorescence, overnight; inhibition, % at 12.6 µM; hit rate 0.086% among 350,000;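 active = mean inhibition across replicates of 30% or more, regardless of how many single replicates reach that level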;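 also: positive control wells lacked labelled fibronectin entirely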
#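 Assay system: AH1F fibroblast monolayer, labelled fibronectin deposition. Amount: 10000 cells per well. Also added: labelled fibronectin 24 nM. Compound: single-point pinned compound. Incubation: cell attachment 1 h, compound and FN exposure overnight. Detection: fluorescence after three HBSS washes, excitation 485 nm, emission 525 nm. Read-out: inhibition of fibronectin deposition signal.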
# Starred values were filed as active, the others as inactive; · = no result given; [ ] = another dose, or the depositor's remark. A selection: hits, their analogues and other compounds. The true share with any hit is near 1.5%.
item | smiles | HIV Env fusion | PGC1a acetyl inh | Cneo AK release
1 | O=C(C[C@@H]1CC[C@H]2[C@@H](COC[C@@H](O)CN2C(=O)C2CCCC2)O1)NCc1ccncc1 | · | 6 | -2
2 | COc1cccc(NC(=O)N2C[C@H](O)COC[C@H]3O[C@@H](CC(=O)NCc4ccccc4F)CC[C@@H]32)c1 | · | -2 | 119*
3 | O=C(C[C@@H]1CC[C@@H]2[C@H](COC[C@H](O)CN2C(=O)C2CCCC2)O1)NCc1ccncc1 | · | 30 | 6
4 | O=C(C[C@H]1CC[C@@H]2[C@H](COC[C@H](O)CN2C(=O)C2CCCC2)O1)NCc1ccncc1 | · | 1 | 67
5 | O=C(C[C@@H]1CC[C@H]2[C@@H](COC[C@H](O)CN2C(=O)Nc2ccc(Cl)c(Cl)c2)O1)NCc1ccncc1 | -8[16.7 µM] | 9 | 27
6 | CN1CCc2c(sc(NC(=O)CS(=O)(=O)c3ccc(F)cc3)c2C(N)=O)C1 | 7 | · | ·
7 | O=S(=O)(Nc1ccccc1N1CCOCC1)c1c(F)cc(F)cc1Br | 9 | -16 | -1
8 | CCCCCCCCC[n+]1cccc2c3ccccc3ccc21 | · | -19 | ·
9 | CCCCCCCCCCCCCCCC[n+]1cccc2ccccc21 | 74* | · | ·
10 | O=c1c2cccnc2n(-c2ccccc2)n1Cc1ccc(Cl)cc1 | 30 | 101* | ·
11 | O=c1c2cccnc2n(-c2ccccc2)n1Cc1c(Cl)cccc1Cl | -15 | 4 | ·
12 | COc1ccccc1N(CC(=O)N(c1ccccc1)C(C)C)S(=O)(=O)c1cccs1 | 28 | -10 | ·

item | FN deposition inh | miR122 inh | Yeast UUG start
1 | 7 | 138*[16.7 µM] | 6
2 | -2 | -3[16.7 µM] | ·
3 | 6 | 48[16.7 µM] | 5
4 | 10 | 122*[16.7 µM] | 15
5 | 0 | 3[16.7 µM] | ·
6 | -1 | · | ·
7 | 1 | 10 | -19
8 | · | -14 | ·
9 | · | · | ·
10 | 0 | -7 | ·
11 | 3 | · | ·
12 | · | · | ·

# Record cards, as listed above. Order of values: HIV Env fusion, PGC1a acetyl inh, Cneo AK release, FN deposition inh, miR122 inh, Yeast UUG start
# Listed for `CCCCCCCCCCCCCCCC[n+]1cccc2ccccc21` = 74*, ·, ·, ·, ·, ·
# Listed for `O=C(C[C@H]1CC[C@@H]2[C@H](COC[C@H](O)CN2C(=O)C2CCCC2)O1)NCc1ccncc1` = ·, 1, 67, 10, 122*[16.7 µM], 15
# Listed for `CN1CCc2c(sc(NC(=O)CS(=O)(=O)c3ccc(F)cc3)c2C(N)=O)C1` = 7, ·, ·, -1, ·, ·

# (list continues)
item | smiles | HIV Env fusion | PGC1a acetyl inh | Cneo AK release
13 | CN(C)S(=O)(=O)c1ccc(C(=O)Nc2nc(-c3cccs3)cs2)cc1 | 76* | 44 | -1
14 | CCOC(=O)c1cnn(-c2ccccc2)c1-c1ccncc1 | 25 | 15 | 0
15 | COc1cccc(NC(=S)N2CCC(Cc3ccccc3)CC2)c1 | -26 | -10 | 117*
16 | CCCCNC(=O)CC(C(=O)N1CCc2ccccc21)n1ccnc1 (stereo not given) | -13 | 0 | 5
17 | CCN(CCCNC(=O)CC(C(=O)N1CCc2ccccc21)n1ccnc1)c1cccc(C)c1 (stereo not given) | 57* | 1 | -2
18 | O=C(Nc1ccc2ccccc2c1)c1cccc([N+](=O)[O-])c1 | -78 | 5 | 18
19 | C[C@@H]1CN([C@@H](C)CO)C(=O)Cc2cc(NC(=O)NC3CCCCC3)ccc2O[C@@H]1CN(C)S(=O)(=O)c1ccc(Cl)cc1 | 60*[16.7 µM] | -39 | 5
20 | CC(C)NC(=O)Nc1ccc2c(c1)CC(=O)N([C@H](C)CO)C[C@H](C)[C@H](CN(C)S(=O)(=O)c1ccc(Cl)cc1)O2 | · | 4 | 89*
21 | C[C@@H]1CN([C@@H](C)CO)C(=O)Cc2cc(NC(=O)C3CC3)ccc2O[C@H]1CN(C)C | 3[16.7 µM] | -1 | 0
22 | CCOc1ccc(/C=N/NC(=O)c2nnn(-c3nonc3N)c2-c2cccs2)cc1 | 3 | 5 | 3
23 | C[C@H](CO)N1C[C@H](C)[C@H](CN(C)Cc2ccc(C(=O)Nc3ccccc3N)cc2)Oc2ccc(NC(=O)CCC(F)(F)F)cc2CC1=O | -181[16.7 µM] | -10 | 2
24 | C[C@H](CO)N1C[C@H](C)[C@@H](CN(C)Cc2ccc(C(=O)Nc3ccccc3N)cc2)Oc2ccc(NC(=O)CCC(F)(F)F)cc2CC1=O | · | 6 | ·
25 | C[C@H](CO)N1C[C@H](C)[C@H](CN(C)Cc2ccc(C(=O)Nc3ccccc3N)cc2)Oc2ccc(NC(=O)Nc3cccc4ccccc34)cc2CC1=O | -24[16.7 µM] | -26 | -1
26 | C[C@H]1CN([C@@H](C)CO)C(=O)Cc2cc(NC(=O)CCCCCC(=O)Nc3ccccc3N)ccc2O[C@H]1CN(C)Cc1ccc2c(c1)OCO2 | 12[16.7 µM] | 11 | 94*

item | FN deposition inh | miR122 inh | Yeast UUG start
13 | 10 | -11 | -21
14 | -5 | -1 | -20
15 | -3 | 0 | -26
16 | · | -5 | -22
17 | 9 | 3 | -14
18 | 12 | 9 | 0
19 | · | -19[16.7 µM] | -19
20 | -3 | 4[16.7 µM] | 16
21 | -9 | 0[16.7 µM] | ·
22 | -34 | 1 | -16
23 | -23 | 98*[16.7 µM] | -2
24 | -14 | · | ·
25 | · | 96*[16.7 µM] | -8
26 | · | 61[16.7 µM] | 16
